This assay deals with human protease activated receptor 1 (PAR-1) (Homo sapiens (Human), UniProt P25116). As to the kind of experiment: Cellular, functional in vitro test (aequorin luminescence, calcium release in recombinant HEK293 PAR-1 test cell). The format is cell-based. As to conditions: HEK293-derived PAR-1 test cell line expressing aequorin; PAR-1 agonist added at its EC50, 5 min after test substance. The source says:
1.a) Cellular, Functional In Vitro Test
A recombinant cell line is used to identify […] of the human protease activated receptor 1 (PAR-1) and to quantify the activity of the substances described herein. The cell is originally derived from a human embryonal kidney cell (HEK293; ATCC: American Type Culture Collection, Manassas, Va. 20108, USA). The test cell line constitutively expresses a modified form of the calcium-sensitive photoprotein aequorin which, after reconstitution with the cofactor coelenterazine, emits light when the free calcium concentration in the inner mitochondrial compartment is increased (Rizzuto R, Simpson A W, Brini M, Pozzan T.; Nature 1992, 358, 325-327). Additionally, the cell stably expresses the endogenous human PAR-1 receptor and the endogenous purinergic receptor P2Y2. The resulting PAR-1 test cell responds to stimulation of the endogenous PAR-1 or P2Y2 receptor with an intracellular release of calcium ions, which can be quantified through resulting aequorin luminescence with a suitable luminometer (Milligan G, Marshall F, Rees S, Trends in Pharmacological Sciences 1996, 17, 235-237).
For the testing of the substance specificity, the effect thereof after activation of the endogenous PAR-1 receptor is compared with the effect after activation of the endogenous purinergic P2Y2 receptor which utilizes the same intracellular signal path.
Two days (48 hours) before the assay, the cells are plated out in culture medium (DMEM F12, supplemented with 10% FCS, 2 mM glutamine, 10 mM HEPES, 1.4 mM pyruvate, 0.1 mg/ml gentamycin, 0.15% Na bicarbonate; BioWhittaker Cat. #BE04-687Q; B-4800 Verviers, Belgium) in 384-well microtitre plates and kept in a cell incubator (96% humidity, 5% v/v CO2, 37° C.). On the day of the test, the culture medium is replaced by a tyrode solution (in mM: 140 sodium chloride, 5 potassium chloride, 1 magnesium chloride, 2 calcium chloride, 20 glucose, 20 HEPES), which additionally contains the cofactor coelenterazine (25 μM) and glutathione (4 mM), and the microtitre plate is then incubated for a further 3-4 hours. The test substances are then pipetted onto the microtitre plate, and 5 minutes after the transfer of the test substances into the wells of the microtitre plate the plate is transferred into the luminometer, a PAR-1 agonist concentration which corresponds to the EC50 is added and the resulting light signal is immediately measured in the luminometer. To distinguish an antagonist substance action from a toxic action, the endogenous purinergic receptor is immediately subsequently activated with agonist (ATP, final concentration 10 μM) and the resulting light signal is measured.

Chains of the proteins cited; added tags and fusions are not shown. Residues count along the entry.
UniProt P25116, 22-425: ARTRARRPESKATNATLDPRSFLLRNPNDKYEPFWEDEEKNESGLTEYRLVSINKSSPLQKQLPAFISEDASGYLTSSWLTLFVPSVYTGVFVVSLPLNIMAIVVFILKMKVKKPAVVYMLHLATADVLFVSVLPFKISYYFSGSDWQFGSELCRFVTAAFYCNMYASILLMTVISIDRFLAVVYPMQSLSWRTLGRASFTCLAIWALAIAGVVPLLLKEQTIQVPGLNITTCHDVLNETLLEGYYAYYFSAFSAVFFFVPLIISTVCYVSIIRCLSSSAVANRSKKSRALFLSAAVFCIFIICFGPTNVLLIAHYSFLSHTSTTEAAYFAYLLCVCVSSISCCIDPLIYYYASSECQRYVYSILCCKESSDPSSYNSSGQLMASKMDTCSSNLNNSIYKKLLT

In general, IC50 refers to the point on the concentration scale where inhibition reaches its midpoint. With `CCc1ccc(C2CC(NC(=O)NC(C)(C)C)CN(C(=O)C3CCCC3)C2)cc1` (racemic) [Example 97, 1-tert-Butyl-3-[1-(cyclopentylcarbonyl)-5-(4-ethylphenyl)piperidin-3-yl]urea], the 50% inhibitory concentration (IC50) turned out to be 109 nM.

Consider `N#CC1CCN(C(=O)N2CC(NC(=O)c3ccccc3)CC(c3ccc(OC(F)(F)F)cc3)C2)CC1` (racemic) [Example 106, N-{1-[(4-Cyanopiperidin-1-yl)carbonyl]-5-[4-(trifluoromethoxy)phenyl]piperidin-3-yl}benzenecarboxamide], for which the 50% inhibitory concentration (IC50) came out at 7.05 nM.

As to `CC(C)c1cccc(C2CC(NC(=O)c3ccccc3)CN(C(=O)N3CCOCC3)C2)c1` (racemic) [Example 121, N-{1-(Morpholin-4-ylcarbonyl)-5-[3-(propan-2-yl)phenyl]piperidin-3-yl}benzenecarboxamide], the IC50 worked out at 79.9 nM.

Take `CCc1ccc(C2CC(NC(=O)c3cccc(OC)c3)CN(C(=O)N3CCC(C#N)CC3)C2)cc1` (racemic) [Example 156, N-{1-[(4-Cyanopiperidin-1-yl)carbonyl]-5-(4-ethylphenyl)piperidin-3-yl}-3-methoxybenzenecarboxamide]: the IC50 is 11.1 nM.

(Values after patent publication US8987248B2, “Substituted piperidines as Par-1 antagonists” (Bayer Intellectual Property GmbH, priority 2009, dated 2015).)
